## Measured affinities in a library of Ab-14 heavy chain variants

All variants were tested on one target, the spike HR2 peptide PDVDLGDISGINAS (SARS-CoV-2).

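Phage display of a naive human antibody library on the peptide gave the parent. Variants in AAYL49 differ from the parent at up to three CDR positions; double and triple changes were sampled at random. AlphaSeq pools MATa yeast showing the antibodies with MATalpha yeast showing the peptide. Pairs that bind mate more often; barcode pairs of the diploids are counted by sequencing. Each replicate has its own calibration line, from reference interactions of the BCL2 family. The assay was run in three technical replicates.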

The variants keep the light chain, the linker and the frameworks of Ab-14 (scFv order VH, the linker GGGGSGGGGSGGGGS, VL).
VH: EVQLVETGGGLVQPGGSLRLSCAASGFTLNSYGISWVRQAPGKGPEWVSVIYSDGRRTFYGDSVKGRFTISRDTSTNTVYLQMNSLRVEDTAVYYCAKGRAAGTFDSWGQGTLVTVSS
VL: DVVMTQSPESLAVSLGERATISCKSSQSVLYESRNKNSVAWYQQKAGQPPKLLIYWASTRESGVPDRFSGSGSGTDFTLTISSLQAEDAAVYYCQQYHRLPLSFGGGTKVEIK

Changes read parent residue, position, new residue, counted from the first residue of the VH shown. The read-out is the apparent dissociation constant on a log10 scale (nM): the lower, the stronger. A mean of the replicates is given; it leaves out those without a signal. An entry "no signal" has no value in the source: the pair was not observed among the diploids in any replicate. This suggests poor binding but is not conclusive. Background: pairings of library AAYL49 with three empty control strains gave a value in 15% of cases (median 4.06, 5th percentile 2.83). Values in that range, when seen in few replicates, are hard to tell from nonspecific mating. Also given: how often the same scFv was detected with the empty control strains. Parent in this assay: reference entry 0.65, copy in this library 4.11 (one replicate of three).

changes | log10 Kd (nM), mean | seen in | control signals
I51A+R56V+Y60T | no signal | 0 of 3 | 1 of 9
V50R+G103I+S107R | no signal | 0 of 3 | 1 of 9
G26T+G33F+G61T | 3.42 | 1 of 3 | 2 of 9
G33F+V50Q+G103A | 4.20 | 3 of 3 | 3 of 9
G26S+S35Q+G61H | 4.32 | 3 of 3 | 9 of 9
I51R+G99P+R100V | 4.82 | 1 of 3 | 4 of 9
F59S+D106G+S107E | 1.85 | 3 of 3 | 4 of 9
F27G+A101C+T104M | 1.88 | 3 of 3 | 4 of 9
S35P+T58V+D106P | 3.73 | 1 of 3 | 1 of 9
G26E+V50L+I51A | no signal | 0 of 3 | 0 of 9
S31A+A102V+F105P | 1.19 | 3 of 3 | 0 of 9
G33V+T58R+G99K | no signal | 0 of 3 | 1 of 9
T58G+Y60F+D62P | no signal | 0 of 3 | 0 of 9
Y32D+S35Q+S107H | no signal | 0 of 3 | 0 of 9
L29F+S63V+F105Y | 4.35 | 1 of 3 | 1 of 9
T58Q+V64P | no signal | 0 of 3 | 1 of 9
F27Y+V50F+Y52R | 4.66 | 1 of 3 | 2 of 9
Y60R+G61H+A102W | no signal | 0 of 3 | 0 of 9
Y32F+S35L+G103E | no signal | 0 of 3 | 0 of 9
N30L+I34C+G55P | 4.59 | 1 of 3 | 2 of 9
G26I+S35A+T104Y | no signal | 0 of 3 | 0 of 9
V50H+Y60F+A102I | 4.48 | 2 of 3 | 2 of 9
I34P+D54M+T58Y | no signal | 0 of 3 | 2 of 9
Y52A+T58Y+D106M | 5.35 | 1 of 3 | 0 of 9
F27P+T28A+G55Y | no signal | 0 of 3 | 2 of 9
R56V+R57F+R100L | no signal | 0 of 3 | 1 of 9
G33L+G103P | no signal | 0 of 3 | 1 of 9
N30E+T58Y+F105C | 5.26 | 1 of 3 | 0 of 9
T28H+Y32K+Y52H | no signal | 0 of 3 | 1 of 9
I51P+F59C+Y60V | 4.32 | 2 of 3 | 0 of 9
S53V+A101R+T104W | 1.21 | 3 of 3 | 0 of 9
N30L+I51F+S107M | no signal | 0 of 3 | 0 of 9
D54F+R56K+T104S | 4.16 | 1 of 3 | 5 of 9
F27K+Y32T+V64W | no signal | 0 of 3 | 0 of 9
Y52R+R57S+A102C | no signal | 0 of 3 | 0 of 9
G26T+G33K+G55A | 5.38 | 1 of 3 | 2 of 9
L29I+Y52E | 5.06 | 1 of 3 | 1 of 9
Y52V+R100T | 4.14 | 2 of 3 | 3 of 9
G26D+Y32I+G99Q | 5.09 | 1 of 3 | 3 of 9
Y32I+G61H+R100I | no signal | 0 of 3 | 1 of 9
F27D+K65M+A101F | 5.09 | 1 of 3 | 1 of 9
V50G+R100C+F105V | no signal | 0 of 3 | 0 of 9
G55Q+S63Q | no signal | 0 of 3 | 0 of 9
F27D+T58D+D106G | no signal | 0 of 3 | 0 of 9
G26L+G55D+R56Y | 3.59 | 1 of 3 | 2 of 9
F27G+D54E+S107E | 5.14 | 1 of 3 | 0 of 9
L29W+G99R | no signal | 0 of 3 | 0 of 9
S53A+V64R+G103T | 4.93 | 1 of 3 | 1 of 9
S35F+D54Y+T58E | no signal | 0 of 3 | 0 of 9
G26S+Y32K+I34D | 4.85 | 1 of 3 | 2 of 9
R56G+A102P+S107E | 3.77 | 2 of 3 | 3 of 9
G33S+V64F+G103T | no signal | 0 of 3 | 0 of 9
I51D+R56E+R57Y | no signal | 0 of 3 | 1 of 9
R56S+T58N+Y60A | 2.57 | 1 of 3 | 0 of 9
D54V+Y60W+D106P | no signal | 0 of 3 | 1 of 9
Y32M+D62C+D106G | 3.84 | 1 of 3 | 4 of 9
F59I+Y60I+D62A | no signal | 0 of 3 | 0 of 9
I34M+R56A+A101N | 3.52 | 3 of 3 | 0 of 9
T58V+G61H+A102I | 2.03 | 3 of 3 | 2 of 9
V50P+D62E | 4.40 | 3 of 3 | 8 of 9

5 of these entries, quoted again:

{"changes": "G26T+G33K+G55A", "log10 Kd (nM), mean": "5.38", "seen in": "1 of 3", "control signals": "2 of 9"}
{"changes": "F59I+Y60I+D62A", "log10 Kd (nM), mean": "no signal", "seen in": "0 of 3", "control signals": "0 of 9"}
{"changes": "S53V+A101R+T104W", "log10 Kd (nM), mean": "1.21", "seen in": "3 of 3", "control signals": "0 of 9"}
{"changes": "Y52V+R100T", "log10 Kd (nM), mean": "4.14", "seen in": "2 of 3", "control signals": "3 of 9"}
{"changes": "F27P+T28A+G55Y", "log10 Kd (nM), mean": "no signal", "seen in": "0 of 3", "control signals": "2 of 9"}

The measurements come from Engelhart et al. 2022 (doi:10.1038/s41597-022-01779-4) through the FLAb antibody collection.